From paper PMC6664820, “Novel natural and synthetic inhibitors of solute carriers SGLT1 and SGLT2” (Pharmacology Research & Perspectives, 2019)
Most of the strong results are listed elsewhere, so they are rarer here than in the full data.

By UniProt entry, the sequences of proteins in these tests, tags left out. Where a name states a change or a piece, a line headed by the entry shows the natural chain unless it says otherwise.
UniProt P13866: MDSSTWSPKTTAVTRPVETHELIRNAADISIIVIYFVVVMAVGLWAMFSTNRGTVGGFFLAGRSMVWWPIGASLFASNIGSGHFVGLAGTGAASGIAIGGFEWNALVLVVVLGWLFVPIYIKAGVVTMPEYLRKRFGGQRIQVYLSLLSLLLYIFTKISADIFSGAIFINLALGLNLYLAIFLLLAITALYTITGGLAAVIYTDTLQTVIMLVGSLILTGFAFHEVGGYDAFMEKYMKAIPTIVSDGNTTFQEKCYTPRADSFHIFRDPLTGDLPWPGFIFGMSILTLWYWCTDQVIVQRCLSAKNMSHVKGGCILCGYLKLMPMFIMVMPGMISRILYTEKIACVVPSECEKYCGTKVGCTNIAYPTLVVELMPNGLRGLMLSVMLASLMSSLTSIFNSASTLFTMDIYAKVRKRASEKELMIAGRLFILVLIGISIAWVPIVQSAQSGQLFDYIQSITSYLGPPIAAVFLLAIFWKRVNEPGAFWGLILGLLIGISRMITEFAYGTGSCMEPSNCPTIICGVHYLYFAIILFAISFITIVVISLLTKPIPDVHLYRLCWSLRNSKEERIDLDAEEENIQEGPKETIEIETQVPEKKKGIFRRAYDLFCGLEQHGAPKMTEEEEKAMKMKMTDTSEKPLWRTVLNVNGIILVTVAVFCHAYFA

What follows are molecules tested against human SGLT1 (hSGLT1) (human, UniProt P13866) (assay: primary screen, percent of control activity; higher = less effect of the substance). Conditions: 50 µM.
Parameters: single well

SMILES	NORMALIZED SGLT1 ACTIVITY (%)
CC(C)C[C@H](NC(=O)[C@@H]1CCCN1C(=O)[C@@H](N)C(C)C)C(=O)O	112
